# Earlier results in article PMC9510668 (Frontiers in Pharmacology, 2022).
# System: CYP3A4
# Conditions: lapatinib; ref [7]; cited from earlier work
compound,measurement,value
CS(=O)(=O)CCNCc1ccc(-c2ccc3ncnc(Nc4ccc(OCc5cccc(F)c5)c(Cl)c4)c3c2)o1 [lapatinib],kinact CPY3A4,0.021 min⁻¹
